Assay results: US9963461B2, “Phillygenin ibuprofen ester, preparation method therefor, and application thereof” (priority 2014, dated 2018)

Test system: Vero cell
Assay: Cytotoxicity test on Vero cell (MTT)
Conditions: 72 hours

NC(=O)c1ncn([C@@H]2O[C@H](CO)[C@@H](O)[C@H]2O)n1 [Ribavirin, ribavirin]
maximal non-toxic concentration (TC0): 0.065 g/L
